# Tested on: Nedd4L mRNA in T cells from MS patients
# Experiment: Nedd4L mRNA expression, real-time PCR
# Format: cell-based, human
# Conditions: T cells from 12 MS patients, normalized to GAPDH, Figure 2c; pU24-6A p: 0.0025, pc: 0.018; pU24-6B p: 0.004, pc: 0.028; Nedd4L RNAi p: 0.0015, pc: 0.011
structure (smiles),measurement,value
CSCC[C@H](NC(=O)[C@@H](NC(=O)[C@H](CC(=O)O)NC(=O)[C@H](CC(N)=O)NC(=O)[C@H](Cc1ccc(O)cc1)NC(=O)[C@H](CO)NC(=O)[C@@H]1CCCN1C(=O)[C@@H]1CCCN1C(=O)[C@@H]1CCCN1C(=O)[C@@H](NC(=O)[C@H](CCC(=O)O)NC(=O)[C@H](Cc1c[nH]cn1)NC(=O)[C@@H](NC(=O)[C@@H](N)CCSC)[C@@H](C)O)[C@@H](C)O)C(C)C)C(=O)N[C@@H](CC(C)C)C(=O)O,Nedd4L mRNA expression,did not modify Nedd4L mRNA expression

# — PMC9696605
